US8349899B1 (Arrowhead Center, Inc., priority 2008, dated 2013)
pIC50: −log10 of the molar value.

Target: T1, recombinant human EG5 motor domain (Homo sapiens, UniProt P52732)
T1 construct: recombinant human EG5 motor domain; purchased Cytoskeleton, Inc
T1 sequence (P52732 18-359 limits assumed): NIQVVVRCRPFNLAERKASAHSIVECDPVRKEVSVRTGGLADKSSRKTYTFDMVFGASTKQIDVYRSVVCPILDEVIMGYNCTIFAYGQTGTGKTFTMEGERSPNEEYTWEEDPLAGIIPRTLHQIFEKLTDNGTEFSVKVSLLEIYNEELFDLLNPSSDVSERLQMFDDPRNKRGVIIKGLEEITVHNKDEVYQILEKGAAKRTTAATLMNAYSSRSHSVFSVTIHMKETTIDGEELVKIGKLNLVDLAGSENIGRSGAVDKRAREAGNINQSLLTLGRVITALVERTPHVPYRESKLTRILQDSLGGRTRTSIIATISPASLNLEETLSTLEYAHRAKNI
Assay: microtubule-activated Eg5 ATPase assay (Cytoskeleton, Inc)
Assay type: biochemical
Settings: microtubule-activated ATPase activity of recombinant human EG5 motor domain

## (R)-2-amino-3-(((4-methoxyphenyl)diphenylmethyl)thio)propanamide [Compound 3.9]
  pIC50: < 4.00
